Experimental findings from PubChem BioAssay AID624354 (Sanford-Burnham Center for Chemical Genomics, 2012) are described below.

Molecules are shown by their SMILES. The list shows a part of the results, in another mix than the full data. Some structures show a salt or complex split into parts, the way the source records it. Active and inactive are the calls of the source.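 Rule for the calls: active = compounds causing at least 50% loss of cell viability in the single-dose screen, relative to plate controls; inactive = the rest.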

The assay is described as follows: viability loss with TRAIL in NB7+C8 cells, primary screen, TRAIL sensitizer project, cell-based, ATPlite luminescence (AID 624354). The conditions noted are these: at 10 µM, stronger effect = higher value.
For `CC1=C2N=C(C=C3N=C(C(C)=C4[N-][C@@](C)([C@@H]5N=C1[C@](C)(CCC(=O)NC[C@@H](C)OP(=O)([O-])O[C@H]1[C@@H](O)[C@@H](n6cnc7cc(C)c(C)cc76)O[C@@H]1CO)[C@H]5CC(N)=O)[C@@](C)(CC(N)=O)[C@@H]4CCC(N)=O)[C@@](C)(CC(N)=O)[C@@H]3CCC(N)=O)C(C)(C)[C@@H]2CCC(N)=O.[C-]#N.[Co+3]`, the inhibition (viability loss, TRAIL sensitization) was inactive: 3.85%.
As to `O=[N+]([O-])c1cc([N+](=O)[O-])c(Nc2nnnn2CCO)c([N+](=O)[O-])c1`, the inhibition (viability loss, TRAIL sensitization) is inactive: 6.54%.
`CCCOc1ccc(NP(C)(=O)Oc2ccc(Cl)cc2)cc1` (configuration not stated): the inhibition (viability loss, TRAIL sensitization) was inactive: -6.43%.
On to `CP(=O)(Nc1ccc(SC(F)(F)F)cc1)Oc1ccccc1` (configuration not stated), for which the inhibition (viability loss, TRAIL sensitization) is inactive: 15.7%.
With `COc1ccc(-c2ccccn2)cc1.O=[N+]([O-])c1cc([N+](=O)[O-])c(O)c([N+](=O)[O-])c1`, the inhibition (viability loss, TRAIL sensitization) was inactive: 8.28%.
For `COc1ccccc1OP(C)(=O)Nc1c(C)cccc1C` (configuration not stated) the value was inactive: 1.07%; for `CN1CCCCC1COC(=O)C1(O)c2ccccc2CCc2ccccc21` (configuration not stated), inactive: 7.01%.
In the case of `CN(Cc1cccnc1)C(=O)COc1ccc(Cl)c(Cl)c1.O=[N+]([O-])c1cc([N+](=O)[O-])c(O)c([N+](=O)[O-])c1`, the inhibition (viability loss, TRAIL sensitization) was inactive: 10.5%.
For the molecule `O=[N+]([O-])c1cc([N+](=O)[O-])c(-n2nnc3ccccc32)c([N+](=O)[O-])c1`, the inhibition (viability loss, TRAIL sensitization) is inactive: 5.58%.
Take `Cc1nc2ccc3ccccc3c2s1.O=[N+]([O-])c1cc([N+](=O)[O-])c(O)c([N+](=O)[O-])c1`: the inhibition (viability loss, TRAIL sensitization) was inactive: 21.5%.
Take `O=[N+]([O-])c1cc([N+](=O)[O-])c(-c2cnn(-c3ccccc3)c2)c([N+](=O)[O-])c1`: the inhibition (viability loss, TRAIL sensitization) was inactive: 21.3%.
For `Cc1cc(C)cc(OP(C)(=O)Nc2ccc(C)cc2C)c1` (configuration not stated) the value was inactive: -15%; for `CCOC(=O)c1ccc(NP(C)(=O)Oc2cc(C)cc(C)c2)cc1` (configuration not stated), inactive: 5.31%.
In the case of `COc1ccccc1OP(C)(=O)Nc1cccc(Br)c1` (configuration not stated), the inhibition (viability loss, TRAIL sensitization) was inactive: -5.48%.
Regarding `Cc1cc(C)cc(OP(C)(=O)Nc2ccccn2)c1` (configuration not stated), the inhibition (viability loss, TRAIL sensitization) is inactive: -32.3%.
Turning to `CP(=O)(Nc1cccc(Br)c1)Oc1ccccc1` (configuration not stated), the inhibition (viability loss, TRAIL sensitization) is inactive: -10.4%.
With `Cc1ccc(C)c(NP(C)(=O)Oc2ccccc2)c1` (configuration not stated), the inhibition (viability loss, TRAIL sensitization) was inactive: 0.224%.
For the molecule `O=C(O)c1cccc(Nc2c([N+](=O)[O-])cc([N+](=O)[O-])cc2[N+](=O)[O-])c1`, the inhibition (viability loss, TRAIL sensitization) is inactive: 1.06%.
In the case of `CC1=NCCc2c1[nH]c1ccccc21.O=[N+]([O-])c1cc([N+](=O)[O-])c(O)c([N+](=O)[O-])c1` it was inactive: 4.44%; in that of `COc1ccc(OP(C)(=O)Nc2ccc(SC(F)(F)F)cc2)cc1` (configuration not stated), inactive: -0.0563%.
In the case of `CCOC(=O)c1ccc(NP(C)(=O)Oc2ccc(F)cc2)cc1` (configuration not stated) it was inactive: -2.02%; in that of `CCN(CC)CCCNc1ccccc1[N+](=O)[O-].O=[N+]([O-])c1cc([N+](=O)[O-])c(O)c([N+](=O)[O-])c1`, inactive: 0.837%.
Consider `CCCCCOc1ccc(NP(C)(=O)Oc2ccc(Cl)cc2Cl)cc1` (configuration not stated), for which the inhibition (viability loss, TRAIL sensitization) is inactive: 6.67%.
Consider `O=[N+]([O-])c1cc([N+](=O)[O-])c(OC2CCCCC2O)c([N+](=O)[O-])c1` (configuration not stated), for which the inhibition (viability loss, TRAIL sensitization) is inactive: 8.55%.
As to `CP(=O)(Nc1ccccc1)Oc1ccc(F)cc1` (configuration not stated), the inhibition (viability loss, TRAIL sensitization) is inactive: 1.59%.
As for `CCN(CC)CCCOC(=O)C(O)(c1ccccc1)C1CCCCC1` (configuration not stated), the inhibition (viability loss, TRAIL sensitization) is inactive: 7.89%.
For `Cc1c([N+](=O)[O-])cc([N+](=O)[O-])c(Br)c1[N+](=O)[O-]` the value was inactive: -16%.
Regarding `CC(C)c1ccc(OP(C)(=O)Nc2ccc(SC(F)(F)F)cc2)cc1` (configuration not stated), the inhibition (viability loss, TRAIL sensitization) was inactive: -3.65%.
Consider `CP(=O)(Nc1ccccc1F)Oc1ccccc1` (configuration not stated), for which the inhibition (viability loss, TRAIL sensitization) was inactive: -15.8%.
Take `O=[N+]([O-])c1cc([N+](=O)[O-])c(Nc2ccc(Cl)cc2)c([N+](=O)[O-])c1`: the inhibition (viability loss, TRAIL sensitization) is inactive: 16.2%.
Consider `COc1ccc2c(c1O)-c1c(O)c(OC)cc3c1[C@H](C2)[N+](C)(C)CC3.O=[N+]([O-])c1cc([N+](=O)[O-])c([O-])c([N+](=O)[O-])c1[O-]`, for which the inhibition (viability loss, TRAIL sensitization) was inactive: 7.85%.
Turning to `O=C(OCCN1CCN(CCOCc2ccccc2)CC1)C(O)(c1ccccc1)c1ccccc1`, the inhibition (viability loss, TRAIL sensitization) is inactive: -2.6%.
Take `O=C(OC1CN2CCC1CC2)c1ccc([N+](=O)[O-])cc1` (configuration not stated): the inhibition (viability loss, TRAIL sensitization) was inactive: -4.02%.
With `CCOP(C)(=S)SCC(=O)NC(C)(CC)C(=O)O` (configuration not stated), the inhibition (viability loss, TRAIL sensitization) is inactive: -20.2%.
In the case of `CP(=O)(Nc1ccc(SC(F)(F)F)cc1)Oc1ccc(F)cc1` (configuration not stated) it was inactive: 0.762%; in that of `O=[N+]([O-])c1cc([N+](=O)[O-])c(C(F)(F)F)c([N+](=O)[O-])c1O`, inactive: -5.95%; in that of `Cc1ccccc1NP(C)(=O)Nc1ccccc1C`, inactive: -5.76%.
In the case of `CP(=O)(Nc1ccc2c(c1)OCCO2)Oc1ccccc1` (configuration not stated) it was inactive: -5.39%; in that of `COc1ccc(NP(C)(=O)Oc2ccccc2OC)cc1` (configuration not stated), inactive: -3.91%; in that of `CN(C)CCOC(=O)C(O)(c1ccccc1)C1CCCCC1` (configuration not stated), inactive: 7.4%.
In the case of `COc1ccc(OP(C)(=O)Nc2cccc(Br)c2)cc1` (configuration not stated) it was inactive: 5.7%; in that of `Cc1c(C(c2ccc3c(c2)OCO3)c2c(C)n(C)n(-c3ccccc3)c2=O)c(=O)n(-c2ccccc2)n1C.O=[N+]([O-])c1cc([N+](=O)[O-])c(O)c([N+](=O)[O-])c1`, inactive: 3.29%.
For `O=[N+]([O-])c1cc([N+](=O)[O-])c(NCC2CCS(=O)(=O)C2)c([N+](=O)[O-])c1` (configuration not stated), the inhibition (viability loss, TRAIL sensitization) was inactive: 3.65%.
For `Cc1cc(-c2cccc3ccccc23)c(C)cn1.O=[N+]([O-])c1cc([N+](=O)[O-])c(O)c([N+](=O)[O-])c1`, the inhibition (viability loss, TRAIL sensitization) was inactive: 4.61%.
In the case of `O=[N+]([O-])c1ccc(OP2(=O)COCCO2)cc1` (configuration not stated) it was inactive: 5.92%; in that of `CP(=O)(OC12CC3CC(CC(C3)C1)C2)OC12CC3CC(CC(C3)C1)C2`, inactive: -10.3%.
Regarding `CCOC(=O)c1ccc(NP(C)(=O)Oc2ccc(Cl)cc2)cc1` (configuration not stated), the inhibition (viability loss, TRAIL sensitization) was inactive: -24.1%.
In the case of `CCc1ccc(OP(C)(=O)Nc2cccnc2)cc1` (configuration not stated), the inhibition (viability loss, TRAIL sensitization) is inactive: -13.5%.
For `CP(=O)(Oc1ccccc1)N1CCOC1=O` (configuration not stated), the inhibition (viability loss, TRAIL sensitization) is inactive: -9.87%.
Take `O=C(OCCCN1CCCC1)C(O)(c1ccccc1)C1CCCCC1` (configuration not stated): the inhibition (viability loss, TRAIL sensitization) is inactive: -6.77%.
Turning to `COc1ccccc1OP(C)(=O)Nc1c(C)n(C)n(-c2ccccc2)c1=O` (configuration not stated), the inhibition (viability loss, TRAIL sensitization) is inactive: -8.29%.
On to `COc1ccc(OP(C)(=O)Nc2ccc(Br)cc2)cc1` (configuration not stated), for which the inhibition (viability loss, TRAIL sensitization) was inactive: -15.5%.
Turning to `CCN(CC)CC(O)COC(=O)C(O)(c1ccccc1)C1CCCCC1` (configuration not stated), the inhibition (viability loss, TRAIL sensitization) was inactive: 3.92%.
In the case of `CN(C)C(=O)c1c([N+](=O)[O-])cc([N+](=O)[O-])cc1[N+](=O)[O-]` it was inactive: -6.07%; in that of `CP(=O)(Nc1ccc(Cl)cc1)Oc1ccc(F)cc1` (configuration not stated), inactive: 18.6%; in that of `COc1ccccc1OP(C)(=O)Nc1ccccc1Br` (configuration not stated), inactive: 0.996%.
Regarding `CC(C)(C)c1ccc(OP(C)(=O)O)cc1`, the inhibition (viability loss, TRAIL sensitization) was inactive: -13.6%.
Regarding `CN(C)CCOC(=O)C(O)(c1ccccc1)C1CCCC1` (configuration not stated), the inhibition (viability loss, TRAIL sensitization) was inactive: -0.944%.
Take `COc1ccc(OP(C)(=O)Nc2ccccn2)cc1` (configuration not stated): the inhibition (viability loss, TRAIL sensitization) was inactive: -5.96%.
For the molecule `COc1ccccc1OP(C)(=O)Nc1ccc(Br)cc1` (configuration not stated), the inhibition (viability loss, TRAIL sensitization) is inactive: -7.31%.
For `CCc1ccc(OP(C)(=O)O)cc1` the value was inactive: -5.83%.
In the case of `COc1ccccc1OP(C)(=O)Nc1ccc(C)cc1C` (configuration not stated), the inhibition (viability loss, TRAIL sensitization) is inactive: -12.2%.
For `CP(=O)(Nc1ccccn1)Oc1ccccc1` (configuration not stated), the inhibition (viability loss, TRAIL sensitization) was inactive: -11.4%.
Take `Cc1c(NP(C)(=O)Oc2ccc(C(C)C)cc2)c(=O)n(-c2ccccc2)n1C` (configuration not stated): the inhibition (viability loss, TRAIL sensitization) is inactive: -1.42%.
On to `O=[N+]([O-])c1cc([N+](=O)[O-])c(Nc2ccccn2)c([N+](=O)[O-])c1`, for which the inhibition (viability loss, TRAIL sensitization) is active: 52%.
Consider `COc1ccc(OP(C)(=O)Nc2ccccc2Br)cc1` (configuration not stated), for which the inhibition (viability loss, TRAIL sensitization) was inactive: 6.39%.
As to `COc1ccccc1OP(C)(=O)Nc1ccc(C)c(C)c1` (configuration not stated), the inhibition (viability loss, TRAIL sensitization) is inactive: -3.74%.
For `Cc1cc(C)cc(OP(C)(=O)Nc2cccc(C(F)(F)F)c2)c1` (configuration not stated), the inhibition (viability loss, TRAIL sensitization) was inactive: -3.15%.
For the molecule `O=C1C(O)=C([N+](=O)[O-])C(=O)C(O)=C1[N+](=O)[O-]`, the inhibition (viability loss, TRAIL sensitization) was inactive: 4.7%.
For `CCCCCCCCCCCCCCCC1C[N+](C)(C)CCOP(C)(=O)O1` (configuration not stated) the value was active: 80.9%; for `CP(=O)(Nc1ccc(Cl)cc1Cl)Oc1ccccc1` (configuration not stated), inactive: 1.7%; for `CP(=O)(OCCOc1ccccc1)OCCOc1ccccc1`, inactive: 4.04%.
